The target of the experiment is PRMT8 (Homo sapiens, UniProt Q9NR22). Nature of the experiment: PRMT8 Biochemical Assay (3H-SAM Flashplate, peptide substrate). The settings on record: read-out: Biochemical IC50 PRMT8; 30 min preincubation, room temperature. The text has this: S-adenosylmethionine (SAM), S-adenosylhomocysteine (SAH), bicine, Tween20, dimethylsulfoxide (DMSO), bovine skin gelatin (BSG), isopropyl-β-D-thiogalactopyranoside (IPTG), and Tris(2-carboxyethyl)phosphine hydrochloride solution (TCEP) were purchased from Sigma-Aldrich at the highest level of purity possible. ^3H-SAM was purchase from American Radiolabeled Chemicals with a specific activity of 80 Ci/mmol. 384-well streptavidin Flashplates were purchased from PerkinElmer.
Peptide representative of human histone H4 residues 31-45 was synthesized with an N-terminal linker-affinity tag motif and a C-terminal amide cap by 21st Century Biochemicals. The peptide was purified by high-performance liquid chromatography (HPLC) to greater than 95% purity and confirmed by liquid chromatography mass spectrometry (LC-MS). The sequence was Biot-Ahx-KPAIRRLARRGGVKR-amide (SEQ ID NO.:8).
Full-length human PRMT8 (NM_019854.4) isoform 1 transcript clone was amplified from an HEK 293 cDNA library and subcloned into pGEX-4T-1 (GE Life Sciences). The resulting construct encodes an N-terminal GST tag and a thrombin cleavage sequence ([…] […] […] […]) (SEQ ID NO.:9) fused directly to Met 1 of PRMT8.
E. coli (BL21(DE3) Gold, Stratagene) made competent by the CaCl2 method were transformed with the PRMT8 construct and ampicillin selection. […]

Amino acid sequences for entries named in this document (tags omitted).
UniProt Q9NR22, whole entry: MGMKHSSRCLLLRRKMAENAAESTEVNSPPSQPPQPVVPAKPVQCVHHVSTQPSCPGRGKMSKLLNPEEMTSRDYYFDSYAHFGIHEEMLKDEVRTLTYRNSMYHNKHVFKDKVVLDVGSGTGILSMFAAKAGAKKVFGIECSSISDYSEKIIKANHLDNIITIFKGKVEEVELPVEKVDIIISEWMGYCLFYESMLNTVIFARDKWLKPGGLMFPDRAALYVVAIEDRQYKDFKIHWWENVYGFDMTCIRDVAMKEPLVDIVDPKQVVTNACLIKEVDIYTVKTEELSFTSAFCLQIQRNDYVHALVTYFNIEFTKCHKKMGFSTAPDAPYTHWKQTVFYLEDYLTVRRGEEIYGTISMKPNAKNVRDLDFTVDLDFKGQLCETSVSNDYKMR

The values that follow come from patent US9630961B2, “Arginine methyltransferase inhibitors and uses thereof” (Epizyme, Inc., priority 2013, dated 2017).

Take `CNCCN(C)Cc1c[nH]nc1-c1csc2ccccc12`: the IC50 was in the range of 101 to 1000 nM. The result for `CNCCN(C)Cc1c[nH]nc1-c1cncnc1` reads 3010 to 10000 nM.
